The structures appear in SMILES notation. Several values for one entry are separate records, joined by “and”; a condition that tells them apart may be missing. Equal values may be shown once. For some assays here: What follows is the remainder of the data, with few or none of the hits. Results filed as inconclusive are left out. This is a selection; strong and weak results do not stand in their true shares. Activity calls are given as the source filed them. The call rests on the fitted dose curve; in most records, active means well fitted curve in the direction sought with a large enough effect in the repeat runs; inconclusive means weak or mixed curves; inactive means no such curve, though single readings can be large; an effect the other way counts as inactive or inconclusive.

By UniProt entry, the sequences of proteins in these tests, tags left out.
UniProt P10635, whole entry, looked up: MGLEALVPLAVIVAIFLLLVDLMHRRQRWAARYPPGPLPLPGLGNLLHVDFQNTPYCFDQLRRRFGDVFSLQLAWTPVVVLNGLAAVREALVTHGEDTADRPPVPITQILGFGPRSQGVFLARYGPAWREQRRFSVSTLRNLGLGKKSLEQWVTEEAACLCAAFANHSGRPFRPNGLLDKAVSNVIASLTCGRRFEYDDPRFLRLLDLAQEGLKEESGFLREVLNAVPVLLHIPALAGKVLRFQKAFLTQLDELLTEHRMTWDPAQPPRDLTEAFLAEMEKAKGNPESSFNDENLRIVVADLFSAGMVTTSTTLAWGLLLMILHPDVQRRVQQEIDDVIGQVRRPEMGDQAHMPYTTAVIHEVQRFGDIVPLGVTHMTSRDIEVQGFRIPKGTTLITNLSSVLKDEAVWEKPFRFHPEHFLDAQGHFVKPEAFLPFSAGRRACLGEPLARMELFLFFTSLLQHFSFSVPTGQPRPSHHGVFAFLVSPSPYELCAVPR

The results in this text go back to PubChem BioAssay (Tox21).
Further: nearly all actives have a fitted effect of over 50% in size.

Tested on in one assay: not listed separately
Nature of the assay: qHTS assay to identify small molecule antagonists of the retinoic acid receptor (RAR) signaling pathway (AID 1159552; further: on the % scale 0 is the no-effect control and ±100 the full control effect). To be noted: C3RL4 RARE luciferase reporter, retinol-stimulated, 6 h; at 92.4 µM (top of the series) unless noted. An outline of the steps: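 Using a RARE-driven luciferase construct in C3RL4 cells, retinol at 1 uM final provided the agonist stimulus while compounds were co-applied. After 6 hours at 37 C, luminescence was recorded to flag inhibitors of retinol signaling.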
Background: qHTS replaces the single test concentration by a dilution series.
For `CN1CCc2cccc3c2[C@H]1Cc1ccc(O)c(O)c1-3`, the activity, negative = inhibition is inactive: 38.8% [at 42.5 µM].
On the same count and under the same terms, the value for `CC1(C)[C@@H](O[C@H]2O[C@H](C(=O)O)[C@@H](O)[C@H](O)[C@H]2O[C@@H]2O[C@H](C(=O)O)[C@@H](O)[C@H](O)[C@H]2O)CC[C@]2(C)[C@H]3C(=O)C=C4[C@@H]5C[C@@](C)(C(=O)O)CC[C@]5(C)CC[C@@]4(C)[C@]3(C)CC[C@@H]12` was inactive: 5.66% [at 42.5 µM]; that for `O=c1c(O)c(-c2ccc(O)c(O)c2)oc2cc(O)cc(O)c12` was inactive: 180% and inactive: -9.22%.
The same measure, in the same setting: as for `CNC[C@H](O)c1ccc(O)c(O)c1`, the figure is inactive: 0.13% [at 19 µM].

A further assay has as its target Cytochrome P450 2D6 (Homo sapiens) (UniProt P10635). The experiment in a line: Cytochrome P450 Family 2 Subfamily D Member 6 (CYP2D6) small molecule antagonists: luciferase reporter qHTS assay (AID 1671196). Further: potency means the concentration at half of the fitted maximal effect. The settings on record: P450-Glo CYP2D6 enzyme assay, luciferin luminescence, 1 h. An outline of the steps:
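CYP2D6 activity was followed as luminescence from its luciferin product after a 1 h NADPH-driven reaction at room temperature. Enzyme-substrate mix and compound were pre-incubated for 10 min, and the signal was read 20 min after adding detection reagent.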
In the case of `CC(C)Cn1cnc2c(N)nc3ccccc3c21`, the Potency was active: 6.01 µM.
Still for that read-out and setting: the value for `COc1cc(N)c(Cl)cc1C(=O)NC1CCN(CCCOc2ccc(F)cc2)CC1OC` (stereo not drawn) was active: 0.275 µM.
On the same count and under the same terms, as for `COc1cc(NC(C)CCCN)c2ncccc2c1` (stereo not drawn), the figure is active: 8.71 µM; as for `CN(C)c1ccc2nc3ccc(=[N+](C)C)cc-3sc2c1`, active: 15.3 µM and active: 11.2 µM and active: 11 µM.
